Earlier results on one substance are cited in patent US20170044471A1, “Sulfate-Free Liquid Laundry Detergent” (The Sun Products Corporation, priority 2015, published 2017).

This data set concerns Zein. Particulars: cited from earlier work.

On to “Sodium Lauryl Sulfoacetate & Disodium Laureth Sulfosuccinate [STEPAN-MILD LSB]”, for which the “Normalized Zein Score of Surfactant” value was 25%.
